Values of other authors, collected in patent US20230158157A1, “POTENT AND SELECTIVE DEGRADERS OF ALK” (DANA-FARBER CANCER INSTITUTE, INC., priority 2020, published 2023).

System: ALK-positive tumors
Conditions: ALK-positive NSCLC patients; cited from earlier work

## C[C@@H](Oc1cc(-c2cnn(C3CCNCC3)c2)cnc1N)c1c(Cl)ccc(F)c1Cl [crizotinib]
  median duration of initial response: 10.9 months

## CCc1cc2c(cc1N1CCC(N3CCOCC3)CC1)C(C)(C)c1[nH]c3cc(C#N)ccc3c1C2=O [alectinib]
  median duration of initial response: 25.7 months
